In this assay the target is ADAM10 (Homo sapiens (Human), UniProt O14672). Nature of the assay: Selectivity assay, ADAM10.

Protein sequences, listed by entry. Tags and fused reporters are not part of them. Residues count along the entry.
UniProt O14672, 214-748, species assumed: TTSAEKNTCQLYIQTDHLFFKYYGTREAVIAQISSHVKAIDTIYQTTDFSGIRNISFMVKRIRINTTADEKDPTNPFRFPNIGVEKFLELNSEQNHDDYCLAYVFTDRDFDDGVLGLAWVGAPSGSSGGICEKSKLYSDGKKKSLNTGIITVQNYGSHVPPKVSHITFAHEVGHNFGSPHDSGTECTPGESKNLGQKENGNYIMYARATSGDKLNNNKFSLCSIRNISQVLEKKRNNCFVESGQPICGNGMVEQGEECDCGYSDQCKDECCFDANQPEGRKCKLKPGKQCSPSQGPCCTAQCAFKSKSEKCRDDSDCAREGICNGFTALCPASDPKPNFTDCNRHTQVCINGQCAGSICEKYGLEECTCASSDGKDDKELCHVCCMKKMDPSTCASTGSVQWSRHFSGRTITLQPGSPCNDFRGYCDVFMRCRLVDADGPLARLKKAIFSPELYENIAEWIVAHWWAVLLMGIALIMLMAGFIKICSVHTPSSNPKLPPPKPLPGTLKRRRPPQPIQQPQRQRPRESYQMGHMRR

Structures are written as SMILES. Where only a bound is given, the exact number is not on record here.

Usually IC50 stands for the concentration that gives 50% inhibition. A low value points to higher potency. With `Cc1cc(COc2ccc(S(=O)(=O)NC[C@@H](C(=O)NO)N3CCN(S(C)(=O)=O)CC3)cc2)c2ccccc2n1` [Example 5, (S)-N-Hydroxy-2-(4-methanesulfonylpiperazin-1-yl)-3-[4-(2-methylquinolin-4-ylmethoxy)benzenesulfonylamino]propionamide], the IC50 was above 10 µM.

In turn, `Cc1ccc(CN2CCN([C@@H](CNS(=O)(=O)c3ccc(OCc4cc(C)nc5ccccc45)cc3)C(=O)NO)CC2)cc1` [Example 21, (S)-N-hydroxy-2-[4-(4-methylbenzyl)piperazin-1-yl]-3-[4-(2-methylquinolin-4-ylmethoxy)benzenesulfonylamino]propionamide] returned a half-maximal inhibitory concentration (IC50) above 10 µM.

(Values after patent US8633196B2, “Benzenesulfonamide compounds, method for synthesizing same, and use thereof in medicine as well as in cosmetics” (Galderma Research & Development, priority 2009, dated 2014).)
